Assay results: PMC9643853, “Synthesis and evaluation of 3-alkynyl-5-aryl-7-aza-indoles as broad-spectrum antiviral agents” (Frontiers in Chemistry, 2022)

Tested on: HEp-2 cells

Substance: dextran sulfate sodium salt [DS-10000, reference compound]
- CC50: > 50 µM
